# AlphaSeq binding of Ab-91 heavy chain variants to a spike HR2 peptide

Target peptide (SARS-CoV-2 spike, HR2 region): PDVDLGDISGINAS

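Library AAYL51 holds single substitutions and randomly drawn double and triple substitutions in the CDRs. In AlphaSeq, yeast of one mating type display the scFv and yeast of the other type display the target. Mating (16 h, 30 °C) was followed by selection of diploids and sequencing of their barcodes. A regression on co-assayed BCL2-family reference pairs converts the normalised counts of each replicate to an apparent Kd. There are three technical replicates.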

Ab-91 is the parent antibody, in scFv form: VL, then a (GGGGS)3 linker, then VH. The light chain is unchanged in all variants.
VL: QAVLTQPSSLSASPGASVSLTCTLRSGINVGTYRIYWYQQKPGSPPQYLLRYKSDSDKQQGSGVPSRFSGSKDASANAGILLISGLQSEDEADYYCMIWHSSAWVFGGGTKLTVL
VH: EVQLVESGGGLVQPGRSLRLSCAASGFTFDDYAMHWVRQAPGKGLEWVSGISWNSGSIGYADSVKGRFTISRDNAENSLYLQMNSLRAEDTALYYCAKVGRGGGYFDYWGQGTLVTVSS

Substitutions are numbered in sequence along the VH above, starting at 1 (not Kabat).
Kd is apparent (estimated from mating counts) and averaged on the log scale over replicates with a signal. Smaller is tighter.
Where no diploid with the target was found in any replicate, the entry reads "no signal": below detection, most likely a poor binder, though not proof of it.
For reference, the parent read 72 nM as the reference entry and 7.5 nM as a member of this library.
As a blank, each scFv also met three strains without target: over library AAYL51, 21% of these pairings were detected, typically at 34 µM and seldom below 1.8 µM. The control count says in how many pairings with the empty strains this scFv gave a signal.

| # | apparent Kd | detected | control signals | changes |
|---|---|---|---|---|
| 1 | 5.2 µM | 2/3 | 3/9 | A33M D62L G103L |
| 2 | 7.8 µM | 1/3 | 0/9 | S55Y A61H G100C |
| 3 | no signal | 0/3 | 0/9 | D30I S57G Y105E |
| 4 | no signal | 0/3 | 2/9 | I51N W53L F106C |
| 5 | 17 µM | 2/3 | 0/9 | G26M M34W G100M |
| 6 | no signal | 0/3 | 1/9 | D30P G56P F106W |
| 7 | 320 µM | 1/3 | 2/9 | M34N H35L N54T |
| 8 | no signal | 0/3 | 3/9 | M34Y G100M G102H |
| 9 | 170 µM | 2/3 | 3/9 | N54M K65E |
| 10 | 47 µM | 1/3 | 3/9 | F29S Y32L S52W |
| 11 | no signal | 0/3 | 2/9 | S52H Y60S G100N |
| 12 | 23 µM | 1/3 | 6/9 | S63V V64G Y105P |
| 13 | 14 µM | 3/3 | 1/9 | W53Y Y105C |
| 14 | 5.0 µM | 1/3 | 5/9 | F29D H35I S63M |
| 15 | no signal | 0/3 | 0/9 | A61K G103M F106H |
| 16 | 81 µM | 1/3 | 4/9 | F29G A33L M34K |
| 17 | no signal | 0/3 | 0/9 | A33P R101Q |
| 18 | 3.5 µM | 1/3 | 1/9 | G26M F27Q V99M |
| 19 | 2.6 µM | 1/3 | 2/9 | Y32S G100V G102M |
| 20 | no signal | 0/3 | 1/9 | Y60D G104P D107K |
| 21 | 4.3 µM | 2/3 | 3/9 | F29M R101Q G104V |
| 22 | 4.1 µM | 1/3 | 2/9 | Y32W I51T S57K |
| 23 | 69 µM | 2/3 | 3/9 | T28E A33L D107H |
| 24 | no signal | 0/3 | 1/9 | Y60Q V64H G103D |
| 25 | no signal | 0/3 | 1/9 | F27C G50F S57T |
| 26 | no signal | 0/3 | 4/9 | A33C G104H Y108P |
| 27 | 570 nM | 2/3 | 0/9 | D62L V64Y D107S |
| 28 | 8.7 µM | 1/3 | 1/9 | T28R W53N R101D |
| 29 | no signal | 0/3 | 0/9 | D30K A61S F106K |
| 30 | 5.3 µM | 1/3 | 0/9 | M34R G50V G102N |
| 31 | 81 µM | 1/3 | 0/9 | G56C V64E G100P |
| 32 | no signal | 0/3 | 2/9 | G50I Y105I |
| 33 | no signal | 0/3 | 5/9 | G26K D30A W53L |
| 34 | 8.1 µM | 3/3 | 4/9 | F27A A33F A61N |
| 35 | no signal | 0/3 | 1/9 | G26N G50S A61R |
| 36 | 6.5 µM | 3/3 | 2/9 | F106Q D107T |
| 37 | 2.4 µM | 1/3 | 1/9 | G26V D31T A33Q |
| 38 | 3.2 µM | 1/3 | 0/9 | F29T D30R D31I |
| 39 | 17 µM | 1/3 | 0/9 | N54V S63G |
| 40 | 2.2 µM | 2/3 | 1/9 | D30P W53I V99C |
| 41 | 1.1 mM | 1/3 | 0/9 | F27K H35D G59S |
| 42 | 920 nM | 3/3 | 6/9 | A33V I58H Y105P |
| 43 | 65 µM | 1/3 | 1/9 | G26I N54S K65L |
| 44 | no signal | 0/3 | 0/9 | M34N Y60G V64M |
| 45 | 31 nM | 3/3 | 6/9 | G56E R101I Y105A |
| 46 | no signal | 0/3 | 0/9 | D62T K65L D107K |
| 47 | 13 nM | 3/3 | 0/9 | Y32P W53P G56E |
| 48 | no signal | 0/3 | 3/9 | S55N S57W F106T |
| 49 | 120 µM | 1/3 | 1/9 | I51F Y60V F106R |
| 50 | no signal | 0/3 | 0/9 | Y32I I58H G59Q |
| 51 | no signal | 0/3 | 1/9 | D31I I51D D62A |
| 52 | no signal | 0/3 | 0/9 | N54F D62H S63W |
| 53 | 16 nM | 3/3 | 6/9 | D30E D62Q Y108A |
| 54 | 110 µM | 1/3 | 2/9 | S52P A61L Y105L |
| 55 | no signal | 0/3 | 0/9 | I51A D62R V99G |
| 56 | 15 µM | 1/3 | 3/9 | H35Y I51R G102V |
| 57 | no signal | 0/3 | 0/9 | H35G V99K R101G |
| 58 | 97 µM | 2/3 | 1/9 | T28Q D31Y G103R |
| 59 | 5.7 µM | 3/3 | 1/9 | V64A Y105R F106P |
| 60 | 7.3 µM | 1/3 | 1/9 | D30R V64L D107M |
| 61 | 110 µM | 2/3 | 2/9 | D30E Y60K V64M |
| 62 | 79 µM | 3/3 | 6/9 | G26K S52L S55M |
| 63 | no signal | 0/3 | 0/9 | Y32S G59M D62R |
| 64 | 35 µM | 3/3 | 7/9 | I51F G102I |
| 65 | no signal | 0/3 | 0/9 | I51H G59T |
| 66 | no signal | 0/3 | 1/9 | D31Y H35S D62Y |
| 67 | no signal | 0/3 | 1/9 | G26S D31N A33C |
| 68 | no signal | 0/3 | 0/9 | F27K S55I G104R |
| 69 | no signal | 0/3 | 2/9 | F29V Y32G F106L |
| 70 | 36 µM | 1/3 | 4/9 | D30M V64Q R101D |
| 71 | 7.8 µM | 3/3 | 5/9 | A61V V64I G104M |
| 72 | no signal | 0/3 | 3/9 | S57C S63Q G100F |
| 73 | no signal | 0/3 | 1/9 | M34Q D62G K65Y |
| 74 | 1.3 µM | 2/3 | 2/9 | G59K Y108C |
| 75 | no signal | 0/3 | 0/9 | W53M V64R Y105E |
| 76 | 310 µM | 1/3 | 3/9 | M34S D62A G102C |
| 77 | no signal | 0/3 | 0/9 | Y32H W53Y Y60C |
| 78 | 240 µM | 3/3 | 2/9 | D30S S52C D62R |

Excerpt, the final 11 entries:

| changes | apparent Kd | detected | control signals |
|---|---|---|---|
| F27K S55I G104R | no signal | 0/3 | 0/9 |
| F29V Y32G F106L | no signal | 0/3 | 2/9 |
| D30M V64Q R101D | 36 µM | 1/3 | 4/9 |
| A61V V64I G104M | 7.8 µM | 3/3 | 5/9 |
| S57C S63Q G100F | no signal | 0/3 | 3/9 |
| M34Q D62G K65Y | no signal | 0/3 | 1/9 |
| G59K Y108C | 1.3 µM | 2/3 | 2/9 |
| W53M V64R Y105E | no signal | 0/3 | 0/9 |
| M34S D62A G102C | 310 µM | 1/3 | 3/9 |
| Y32H W53Y Y60C | no signal | 0/3 | 0/9 |
| D30S S52C D62R | 240 µM | 3/3 | 2/9 |

Reference: Engelhart et al. 2022, doi:10.1038/s41597-022-01779-4. File: FLAb, binding data.